Results published in patent US11311522B1 (Cavion, Inc., priority 2018, dated 2022).

By UniProt entry, the sequences of proteins in these tests, tags left out.
UniProt Q9P0X4, whole entry, species assumed: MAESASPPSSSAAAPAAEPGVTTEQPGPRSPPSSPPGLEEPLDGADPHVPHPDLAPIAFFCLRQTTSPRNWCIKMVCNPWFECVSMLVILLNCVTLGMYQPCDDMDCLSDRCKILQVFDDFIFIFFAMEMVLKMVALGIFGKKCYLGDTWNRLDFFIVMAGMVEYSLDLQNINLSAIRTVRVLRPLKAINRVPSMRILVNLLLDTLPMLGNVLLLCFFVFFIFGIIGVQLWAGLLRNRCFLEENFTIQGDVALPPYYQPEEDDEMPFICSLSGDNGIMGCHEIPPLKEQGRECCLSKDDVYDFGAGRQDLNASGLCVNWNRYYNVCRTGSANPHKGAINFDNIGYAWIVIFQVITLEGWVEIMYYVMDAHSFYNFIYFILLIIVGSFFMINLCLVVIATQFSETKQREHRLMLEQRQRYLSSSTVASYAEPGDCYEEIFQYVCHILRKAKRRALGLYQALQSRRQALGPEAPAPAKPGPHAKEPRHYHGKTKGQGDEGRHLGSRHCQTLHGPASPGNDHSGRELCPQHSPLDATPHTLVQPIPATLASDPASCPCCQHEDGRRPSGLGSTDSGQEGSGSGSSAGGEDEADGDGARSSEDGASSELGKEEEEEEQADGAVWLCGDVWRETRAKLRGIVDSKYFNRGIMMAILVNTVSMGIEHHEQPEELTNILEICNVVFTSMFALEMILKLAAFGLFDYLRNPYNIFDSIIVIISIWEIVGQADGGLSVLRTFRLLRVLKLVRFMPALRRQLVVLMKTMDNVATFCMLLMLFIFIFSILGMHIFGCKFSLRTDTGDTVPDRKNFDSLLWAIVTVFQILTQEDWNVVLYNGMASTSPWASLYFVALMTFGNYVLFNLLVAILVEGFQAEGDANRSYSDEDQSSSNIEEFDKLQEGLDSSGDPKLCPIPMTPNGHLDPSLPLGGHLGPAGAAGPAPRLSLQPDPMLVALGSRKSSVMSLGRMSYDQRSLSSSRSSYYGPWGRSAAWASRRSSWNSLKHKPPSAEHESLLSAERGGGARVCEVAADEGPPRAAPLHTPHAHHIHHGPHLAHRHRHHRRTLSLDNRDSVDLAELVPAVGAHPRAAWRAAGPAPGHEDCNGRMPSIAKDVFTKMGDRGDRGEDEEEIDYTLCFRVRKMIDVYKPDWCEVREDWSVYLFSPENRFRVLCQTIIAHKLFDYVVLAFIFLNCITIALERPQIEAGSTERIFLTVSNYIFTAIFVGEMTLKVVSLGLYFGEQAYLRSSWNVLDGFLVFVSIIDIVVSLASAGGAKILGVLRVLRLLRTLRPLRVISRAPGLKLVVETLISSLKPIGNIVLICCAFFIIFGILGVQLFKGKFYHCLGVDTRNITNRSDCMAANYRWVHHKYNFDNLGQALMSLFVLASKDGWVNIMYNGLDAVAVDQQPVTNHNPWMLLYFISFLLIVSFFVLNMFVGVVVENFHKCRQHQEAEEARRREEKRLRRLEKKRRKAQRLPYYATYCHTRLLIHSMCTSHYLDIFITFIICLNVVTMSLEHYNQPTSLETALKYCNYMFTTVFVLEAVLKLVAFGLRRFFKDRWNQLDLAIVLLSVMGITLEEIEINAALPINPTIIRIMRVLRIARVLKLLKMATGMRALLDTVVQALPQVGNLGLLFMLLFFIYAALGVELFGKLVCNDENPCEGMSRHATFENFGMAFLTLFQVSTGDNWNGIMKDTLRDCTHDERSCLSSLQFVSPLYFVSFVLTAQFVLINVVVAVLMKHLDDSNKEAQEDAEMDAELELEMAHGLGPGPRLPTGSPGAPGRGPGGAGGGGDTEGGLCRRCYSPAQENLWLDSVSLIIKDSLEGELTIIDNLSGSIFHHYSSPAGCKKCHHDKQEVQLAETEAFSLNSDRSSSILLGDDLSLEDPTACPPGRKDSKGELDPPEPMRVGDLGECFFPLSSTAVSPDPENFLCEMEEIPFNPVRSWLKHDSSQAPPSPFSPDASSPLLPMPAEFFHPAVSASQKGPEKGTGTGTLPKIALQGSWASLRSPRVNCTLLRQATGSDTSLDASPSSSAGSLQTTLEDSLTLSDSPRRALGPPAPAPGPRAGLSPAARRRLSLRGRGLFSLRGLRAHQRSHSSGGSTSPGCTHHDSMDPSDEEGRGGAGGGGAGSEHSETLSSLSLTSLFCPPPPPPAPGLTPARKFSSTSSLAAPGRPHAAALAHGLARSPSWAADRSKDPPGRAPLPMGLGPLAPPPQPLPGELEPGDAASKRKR

How the values were obtained:
[1] = tested on: patients with essential tremor; assay: T-CALM: Patient Global Impression of Change (PGIC); assay type: in vivo, human; conditions: Day 15
From the text: Global rating of change (GRC) scales were designed to quantify a patient's improvement or deterioration over time, usually either to determine the effect of an intervention or to chart the clinical course of a condition. GRC scales ask a patient to assess his or her current health status, recall that status at the beginning of treatment, and then calculate the difference between the two. The simplicity of GRC scales makes them easy to administer and applicable to a wide range of patients (see, e.g., Kamper et al., 2009 The Journal of Manual & Manipulative Therapy 17(3):163-170).
Treatment success as measured by PGIC was summarized using descriptive statistics.

[2] = MR2 capsules fed versus fasted PK; assay type: in vivo; conditions: human, plasma, oral, 8 mg, single dose (1×8 mg) of MR2 CX-8998
Cav3.3 = molecular target: T1, Cav3.3 (Homo sapiens, UniProt Q9P0X4); assay: Cav3.3 FLIPR calcium influx assay (HEK 293 cells); assay type: cell-based; conditions: hyperpolarized versus depolarized FLIPR potency
T1 construct: expressed in transfected cells; host or cells: HEK 293

airway resistance = assay: Airway resistance in anesthetized male rats, IV; assay type: in vivo, rat; conditions: 6 mg/kg IV
Pharmacokinetics in rats = assay type: in vivo, rat
Pharmacokinetics in dogs = assay type: in vivo, dog
[3] = Pharmacokinetics in rhesus monkeys; assay type: in vivo; conditions: rhesus monkey, plasma, po, 20 mg/kg; single dose
Cav3 = molecular target: T2, Cav3 (Homo sapiens, UniProt Q9P0X4); assay: Cav3 potency and state dependency, summary of Cav3 antagonist pharmacological properties; assay type: cell-based
T2 construct: rows headed: State dependency

[4] = Beagle dog, 10-day, 3, 30 and 300 mg/kg/day escalating oral doses; any dose
in vivo [5] = conditions: female, rat, po
in vivo [6] = conditions: female, rat, po, 10 mg/kg/day
in vivo [7] = conditions: rat, po
in vivo [8] = conditions: Beagle, dog, po
in vivo [9] = conditions: Beagle, dog, plasma, po
[10] = 4-week oral toxicology in Beagle dogs; conditions: mean
[11] = 90-day oral toxicology in Beagle dogs
[12] = 4-week oral toxicology in rats (with FOB); conditions: rat, plasma
[13] = Female dogs, 2 mg/kg/day oral gavage, Day 28
[14] = Female dogs, 20 mg/kg/day oral gavage, Day 28
[15] = Female dogs, 800 mg/kg/day oral gavage, Day 28
[16] = Male dogs, 2 mg/kg/day oral gavage, Day 28
[17] = Male dogs, 20 mg/kg/day oral gavage, Day 28
[18] = Male dogs, 800 mg/kg/day oral gavage, Day 1
[19] = Male dogs, 800 mg/kg/day oral gavage, Day 28
[20] = Female dogs, 100/300 mg/kg/day oral gavage, Day 90, mean
[21] = Male dogs, 100/300 mg/kg/day oral gavage, Day 90, mean
[22] = female, Beagle, dog, in vivo, po, 30 mg/kg/day
[23] = male, Beagle, dog, in vivo, po, 10 mg/kg/day
[24] = male, beagle, dog, in vivo, po, 30 mg/kg/day

Q: Which “PGIC Improved, number” value [1] does the source give for CC(C)c1ccc(CC(=O)N[C@H](C)c2ccc(OCC(F)(F)F)cn2)cc1 [CX-8998] here?
A: 26

Q: And the AUC [2]?
A: 6.79 µM·h

Q: And the State dependence (Cav3.3)?
A: 45 fold

Q: And the Airway resistance (airway resistance)?
A: No change in airway resistance

Q: What about the Cmax (Pharmacokinetics in rats; Rat, oral 10 mg/kg, mean (SD)) of the same molecule?
A: 3.5 µM

Q: And the Tmax (Pharmacokinetics in rats; plasma, Rat, oral 10 mg/kg, mean (SD), read-out: Tmax)?
A: 0.5 h

Q: What about the AUClast (Pharmacokinetics in rats; rodents) of the same molecule?
A: 6.3 µM·h

Q: And the Cmax (Pharmacokinetics in rats; rodents)?
A: 3.5 µM

Q: What about the Tmax (Pharmacokinetics in rats; rodents) of the same molecule?
A: 0.5 h

Q: What about the CL (Pharmacokinetics in dogs; Dog, IV […], mean (SD), 3 animals) of the same molecule?
A: 1.5 (0.4) mL/min/kg

Q: What about the Plasma clearance (Pharmacokinetics in dogs; dog, in vivo) of the same molecule?
A: 1.5 mL/min/kg

Q: What about the bioavailability [3] of the same molecule?
A: < 3%

Q: What about the State dependency (Cav3) of the same molecule?
A: 45 fold

Q: What about the treatment-related findings [4] of the same molecule?
A: No treatment-related findings were

Q: And the “Day 90 Free Plasma Cmax at NOAEL for Rat 90-Day Toxicology” value (Female rats, 300 mg/kg/day)?
A: 423 nM

Q: And the “Day 90 Free Plasma Cmax at NOAEL for Dog 90-Day Toxicology” value (Male dogs, 30 mg/kg/day)?
A: 118 nM

Q: What about the Cmax (in vivo [5]; 10 mg/kg/day) of the same molecule?
A: 5.2 µM

Q: What about the Cmax (in vivo [5]; 100 mg/kg/day) of the same molecule?
A: 14.7 µM

Q: And the Cmax (in vivo [5]; 500 mg/kg/day)?
A: 24 µM

Q: And the AUC (in vivo [6])?
A: 13.1 µM·h

Q: What about the Cmax (in vivo [6]) of the same molecule?
A: 5.91 µM

Q: What about the AUC (in vivo [7]; female, 5 mg/kg/day) of the same molecule?
A: 5.41 µM·h

Q: And the Cmax (in vivo [7]; female, 5 mg/kg/day)?
A: 2.9 µM

Q: And the AUC (in vivo [7]; female, 15 mg/kg/day)?
A: 26.6 µM·h

Q: And the Cmax (in vivo [7]; female, 15 mg/kg/day)?
A: 6.4 µM

Q: And the AUC (in vivo [7]; female, 100 mg/kg/day)?
A: 554 µM·h

Q: And the Cmax (in vivo [7]; female, 100 mg/kg/day)?
A: 41 µM

Q: And the AUC (in vivo [7]; female, 300 mg/kg/day)?
A: 566 µM·h

Q: And the Cmax (in vivo [7]; female, 300 mg/kg/day)?
A: 52.9 µM

Q: What about the AUC (in vivo [7]; male, 5 mg/kg/day) of the same molecule?
A: 3.85 µM·h

Q: And the Cmax (in vivo [7]; male, 5 mg/kg/day)?
A: 1.41 µM

Q: And the AUC (in vivo [7]; male, 15 mg/kg/day)?
A: 12.1 µM·h

Q: And the Cmax (in vivo [7]; male, 15 mg/kg/day)?
A: 5.41 µM

Q: And the AUC (in vivo [7]; male, 100 mg/kg/day)?
A: 170 µM·h

Q: And the Cmax (in vivo [7]; male, 100 mg/kg/day)?
A: 29.1 µM

Q: What about the AUC (in vivo [7]; male, 300 mg/kg/day) of the same molecule?
A: 261 µM·h

Q: And the Cmax (in vivo [7]; male, 300 mg/kg/day)?
A: 22.5 µM

Q: And the AUC (in vivo [8]; female, 3 mg/kg/day)?
A: 52.3 µM·h

Q: What about the Cmax (in vivo [8]; female, 3 mg/kg/day) of the same molecule?
A: 5.9 µM

Q: And the AUC (in vivo [8]; female, 30 mg/kg/day)?
A: 933 µM·h

Q: What about the Cmax (in vivo [8]; female, 30 mg/kg/day) of the same molecule?
A: 58.5 µM

Q: And the Tmax (in vivo [8]; female, 30 mg/kg/day)?
A: 4 h

Q: What about the Tmax (in vivo [8]; female, 300 mg/kg/day) of the same molecule?
A: 4 h

Q: And the AUC (in vivo [8]; male, 30 mg/kg/day)?
A: 708 µM·h

Q: And the AUC (in vivo [8]; male, 300 mg/kg/day)?
A: 1810 µM·h

Q: And the AUC (in vivo [9]; female, 2 mg/kg/day)?
A: 40.8 µM·h

Q: What about the Cmax (in vivo [9]; female, 2 mg/kg/day) of the same molecule?
A: 5.98 µM

Q: What about the AUC (in vivo [9]; female, 20 mg/kg/day) of the same molecule?
A: 510 µM·h

Q: What about the Cmax (in vivo [9]; female, 20 mg/kg/day) of the same molecule?
A: 49.7 µM

Q: And the AUC (in vivo [9]; female, 800 mg/kg/day)?
A: 1650 µM·h

Q: And the Cmax (in vivo [9]; female, 800 mg/kg/day)?
A: 105 µM

Q: And the AUC (in vivo [9]; male, 2 mg/kg/day)?
A: 48.2 µM·h

Q: What about the Cmax (in vivo [9]; male, 2 mg/kg/day) of the same molecule?
A: 13.4 µM

Q: What about the Cmax (in vivo [9]; male, 20 mg/kg/day) of the same molecule?
A: 49.4 µM

Q: And the AUC24 [10, 13]?
A: 42.7 µM·h

Q: What about the Cmax [10, 13] of the same molecule?
A: 6.42 µM

Q: And the Tmax [10, 13]?
A: 0.83 h

Q: And the AUC24 [10, 14]?
A: 372 µM·h

Q: And the Cmax [10, 14]?
A: 39.8 µM

Q: And the Tmax ([10]; Female dogs, 800 mg/kg/day oral gavage, Day 1)?
A: 12 h

Q: What about the AUC24 [10, 15] of the same molecule?
A: 890 µM·h

Q: And the Cmax [10, 15]?
A: 59.1 µM

Q: What about the Tmax [10, 15] of the same molecule?
A: 2.6 h

Q: And the AUC24 [10, 16]?
A: 50.4 µM·h

Q: And the Cmax [10, 16]?
A: 7.12 µM

Q: What about the AUC24 [10, 17] of the same molecule?
A: 350 µM·h

Q: And the Cmax [10, 17]?
A: 38 µM

Q: And the AUC24 [10, 18]?
A: 1910 µM·h

Q: What about the Tmax [10, 18] of the same molecule?
A: 6.7 h

Q: What about the AUC24 [10, 19] of the same molecule?
A: 747 µM·h

Q: And the Cmax [10, 19]?
A: 43.6 µM

Q: And the Tmax [10, 19]?
A: 2.8 h

Q: And the AUC24 [11, 20]?
A: 520 µM·h

Q: And the Cmax [11, 20]?
A: 59.5 µM

Q: And the AUC24 [11, 21]?
A: 1570 µM·h

Q: And the Cmax [11, 21]?
A: 206 µM

Q: And the Tmax ([11]; Male dogs, 100/300 mg/kg/day oral gavage, Day 90, median)?
A: 5.33 h

Q: And the Cmax ([11]; female, Beagle, dog, in vivo, po, 10 mg/kg/day)?
A: 23.6 µM

Q: What about the AUC [11, 22] of the same molecule?
A: 363 µM·h

Q: What about the Cmax [11, 22] of the same molecule?
A: 43.4 µM

Q: What about the Cmax ([11]; female, beagle, dog, in vivo, po, 30 mg/kg/day) of the same molecule?
A: 43.4 µM

Q: And the AUC [11, 23]?
A: 191 µM·h

Q: And the Cmax [11, 23]?
A: 24.8 µM

Q: And the Cmax ([11]; male, Beagle, dog, in vivo, po, 30 mg/kg/day)?
A: 39.4 µM

Q: What about the AUC [11, 24] of the same molecule?
A: 335 µM·h

Q: And the Cmax [11, 24]?
A: 39.4 µM

Q: What about the Tmax ([12]; female, 30 mg/kg/day) of the same molecule?
A: 0.5 h

Q: What about the AUC ([12]; female, 30 mg/kg/day, AUC24, 30 mg/kg/day, female rats) of the same molecule?
A: 43 µM·h

Q: And the AUC ([12]; female, 30 mg/kg/day, AUC24, Female rats, 30 mg/kg/day oral gavage, Day 28, mean (SD))?
A: 43.6 µM·h

Q: What about the Cmax ([12]; female, 30 mg/kg/day, Cmax, Female rats, 30 mg/kg/day oral gavage, Day 28, mean (SD)) of the same molecule?
A: 21.6 µM

Q: What about the Cmax ([12]; female, 30 mg/kg/day, Cmax, female rats) of the same molecule?
A: 21 µM

Q: And the Tmax ([12]; female, 2000 mg/kg/day)?
A: 8 h

Q: What about the AUC ([12]; female, 2000 mg/kg/day, AUC24, Female rats, 2000 mg/kg/day oral gavage, Day 28, mean (SD)) of the same molecule?
A: 610 µM·h

Q: What about the AUC ([12]; male, 30 mg/kg/day) of the same molecule?
A: 35 µM·h

Q: What about the Cmax ([12]; male, 30 mg/kg/day) of the same molecule?
A: 13 µM

Q: And the Tmax ([12]; male, 30 mg/kg/day)?
A: 0.5 h

Q: And the Cmax ([12]; male, 30 mg/kg/day, Cmax, Male rats, 30 mg/kg/day oral gavage, Day 28, mean (SD))?
A: 13.2 µM

Q: What about the AUC ([12]; male, 300 mg/kg/day, AUC24, Male rats, 300 mg/kg/day oral gavage, Day 28, mean (SD)) of the same molecule?
A: 333 µM·h
